Article PMC3831620 (Naunyn-Schmiedeberg's archives of pharmacology, 2012)

Key:
A2B receptor = target: T1, A2B receptor (Homo sapiens, UniProt P29275); test: A2B receptor-mediated adenylyl cyclase activity, CHO membranes; type: biochemical
T1 sequence (P29275 1-332): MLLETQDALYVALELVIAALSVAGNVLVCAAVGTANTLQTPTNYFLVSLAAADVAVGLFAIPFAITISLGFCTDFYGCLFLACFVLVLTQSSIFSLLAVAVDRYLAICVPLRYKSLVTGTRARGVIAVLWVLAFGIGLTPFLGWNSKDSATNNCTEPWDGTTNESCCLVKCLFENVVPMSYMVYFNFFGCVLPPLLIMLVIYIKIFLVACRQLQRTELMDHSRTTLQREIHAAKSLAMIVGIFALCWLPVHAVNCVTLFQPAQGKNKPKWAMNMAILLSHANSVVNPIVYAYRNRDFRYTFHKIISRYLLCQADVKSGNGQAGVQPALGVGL

[1] = mice, autoradiography, tritiated compounds; ref Lindemalm et al. 1999; cited from earlier work

SMILES | EC50 (A2B receptor) [µM] | uptake into the brain relative to cladribine and clofarabine [1]
Nc1nc(F)nc2c1ncn2[C@@H]1O[C@H](CO)[C@@H](O)[C@@H]1O [fludarabine, 2-fluoroadenine-9-β-D-arabinofuranoside] | > 100 | ~ 2.5 times
Nc1nc(Cl)nc2c1ncn2[C@H]1C[C@H](O)[C@@H](CO)O1 [cladribine, 2-chloro-2′-deoxyadenosine] | > 100 | –
